Earlier results on two compounds are cited in patent publication US20070016968A1, “Treatment of pain through expression of opioid receptors” (priority 2003, published 2007).

Each structure is given as a SMILES string.

Series [1] concerns MOR-1 knockout mice (exon-1). Conditions: disruption in exon-1 (Schuller et al 1999).
For the next series, the system named is MOR-1 knockout mouse. Conditions: MOR-1 knockout mouse (Matthes et al 1996).

Consider `CN1CC[C@]23c4c5ccc(O)c4O[C@H]2[C@@H](O[C@@H]2O[C@H](C(=O)O)[C@@H](O)[C@H](O)[C@H]2O)C=C[C@H]3[C@H]1C5` [morphine-6b-glucuronide], for which the antinociception entry in series [1] was “still produce antinociception”.

Take `CN1CC[C@]23c4c5ccc(O)c4O[C@H]2[C@@H](O)C=C[C@H]3[C@H]1C5` [morphine]: in series [1], the antinociception result was “not”. The “response to morphine (pain relief, reinforcement, dependence)” value with MOR-1 knockout mouse is given as “does not respond to morphine”.
